{"sequences": {"note": "Chains of the proteins cited; added tags and fusions are not shown. Residues count along the entry.", "UniProt P80188, 21-198": "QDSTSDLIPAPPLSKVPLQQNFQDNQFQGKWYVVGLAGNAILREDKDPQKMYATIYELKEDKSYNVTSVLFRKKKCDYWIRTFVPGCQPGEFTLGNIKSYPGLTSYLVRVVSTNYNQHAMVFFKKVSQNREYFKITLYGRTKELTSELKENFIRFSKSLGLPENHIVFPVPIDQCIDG"}, "source": "patent US20110268818A1", "about": "“NGAL-BINDING SIDEROPHORES AND USE THEREOF TO TREAT IRON DEFICIENCY AND IRON OVERLOAD” (priority 2008, published 2011)", "key": {"[1]": {"molecular_target": "T1, NGAL (Homo sapiens, UniProt P80188)", "T1 construct": "made in house; host or cells: E. coli BL-21", "assay": "NGAL:siderophore:iron binding assay (retention on 10 kDa filter)", "settings": "apoNGAL 10 μM, 55Fe, compound 10 μM, pH 7.4, washed on 10 kDa filter", "procedure": "NGAL:Siderophore:Iron Binding Assays. […] After 60 minutes, the mixture was washed 3 times (YM-10) or alternatively gel filtered (PD-10, GE Biosciences). Ent loaded NGAL served as a positive control. Ferric citrate (1 mM) or Ent:iron (500 μM) served as competitors of ^55Fe binding.\nAfter 60 minutes at room temperature, the mixture was then washed 3 times on a 10-kDa membrane (Amicon YM-10; Millipore Corp.). Ngal loaded with iron-free enterochelin (rather than apo-Ngal) served as a positive control for iron capture. Ferric citrate (1 mM) or iron-loaded enterochelin (siderophore:Fe, […]) was used as a competitor of 55Fe binding."}, "[2]": {"assay": "Siderophore:iron binding assay (paper chromatography)", "source_text": "Siderophore:Iron Binding Assay. To test whether candidates bound iron directly, candidates (1 nmole) were mixed with ^55Fe (1 pmole), and then separated bound from free ^55Fe using paper chromatography developed in water.\nPaper chromatography: The Fe-Siderophore Binding Assay: The concept underlying the Ngal-siderophore-Fe binding assay is that the urinary molecule provides an iron binding siderophore, and that the Ngal protein provides the carrier which retains the siderophore:Fe on the 10 KDa filter. […] To directly test this idea, we will mix 55Fe with HMDB compounds and then separate bound from free 55Fe by using paper chromatography. […] The assay also provides an independent means to follow the purification of the urinary siderophore. Using this assay, we can measure the specific activity of the fractions to identify the peak activity, as well as to compare the urinary fraction with enterochelin to establish relative units of activity."}}}
{"smiles": "O=C(O)CC(C(=O)O)C(O)C(=O)O", "note": "(racemic) [Isocitric acid]", "values": [{"measurement": "NGAL: Chelator: Fe % Retention", "setting": "[1]", "result": 6, "unit": "%"}, {"measurement": "iron chelating activity by paper chromatography (in words)", "setting": "[2]", "result": "active"}]}
